Molecular target: hGHSR1aWT (Homo sapiens, UniProt Q92847)
Assay: Gαq/11-dependent intracellular Ca2+ mobilization
Assay type: cell-based
Details: 30 min antagonist pretreatment

By UniProt entry, the sequences of proteins in these tests, tags left out.
UniProt Q92847, whole entry: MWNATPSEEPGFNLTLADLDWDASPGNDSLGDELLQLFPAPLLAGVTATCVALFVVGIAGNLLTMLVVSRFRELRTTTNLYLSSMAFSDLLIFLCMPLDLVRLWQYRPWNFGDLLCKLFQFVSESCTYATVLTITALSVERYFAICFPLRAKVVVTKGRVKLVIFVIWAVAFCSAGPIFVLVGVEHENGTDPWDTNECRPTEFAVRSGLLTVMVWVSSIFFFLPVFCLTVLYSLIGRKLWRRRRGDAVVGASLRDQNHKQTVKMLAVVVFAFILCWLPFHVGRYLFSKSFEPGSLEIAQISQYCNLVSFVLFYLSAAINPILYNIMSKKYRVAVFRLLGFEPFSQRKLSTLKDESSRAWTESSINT

inhibition of iCa2+ evoked by EC80 N8279, ghrelin or L585: competitively inhibited
Substance: JMV2959
